Measurements published in patent publication US7803381B2, “Retro-inverso gonadotropin-releasing hormone peptide and vaccine composition” (Shimoda Biotech (Pty) Ltd., priority 2002, dated 2010).

Amino acid sequences for entries named in this document (tags omitted). A change or cut given only in a name is not applied to a line headed by its entry.
UniProt P01148: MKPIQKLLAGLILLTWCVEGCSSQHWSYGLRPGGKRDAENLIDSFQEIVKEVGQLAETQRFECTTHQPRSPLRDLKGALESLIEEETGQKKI

Biological target: T1, GnRH (Homo sapiens, UniProt P01148)
T1 construct: made in house; host or cells: chemical solid-phase synthesis (University of Cape Town); receptor expressed in transfected COS-1 cells
Experiment: Antiserum/antibody inhibition of GnRH stimulated IP accumulation in COS-1 cells transfected with human GnRH receptor
Type: cell-based, mammalian
Settings: 0.3 nM GnRH; read-out: antibody concentration inhibiting 50% of GnRH-stimulated IP accumulation
Procedure: The transfected COS-1 cells (2×10^5 cells/well) were incubated overnight in 0.5 ml Medium 199 (Life Technologies Inc.) with antibiotics and myo-[2-^3H] inositol (1 μCi/well, Amersham Pharmacia Biotech) as previously described. The labelled cells were incubated with various concentrations of GnRH-analogs for one hour at 37° C. in the presence of LiCl as described. Aspirating the medium and addition of 10 mM formic acid (1 ml/well) terminated the incubation. Inositol phosphates separated from the formic acid extract on DOWEX-1 ion exchange columns and eluted into scintillation liquid (Quicksafe, Zinsser Analytical, Frankfurt, Germany) and the radioactivity was counted. […] Serum from the same rabbits before immunisation was also tested. […] After one hour the incubation was terminated with formic acid and inositol phosphates were separated and counted as described. […] The mixture was added to labelled cells, and the inhibition of IP production was calculated. […] Purified anti-RI-GnRH antibodies were tested for their ability to discriminate among GnRH, [[…]]GnRH, and GnRH II. […] Stimulating with these concentrations [half-maximal effective concentrations (EC50)] in the absence of antibody produced similar levels of IP counts. […] The mixture was added to labelled cells and the inhibition of IP production calculated as described. […]

Substance: glycine
- IC50: 2.2 nM
